10 molecules from patent US20220144812A1, “QUINOLINE DERIVATIVES AND THEIR USE FOR THE TREATMENT OF CANCER” (Epizyme, Inc., priority 2019, published 2022) can be followed below.

By UniProt entry, the sequences of proteins in these tests, tags left out. Residues count along the entry.
UniProt Q92793, 1084-1701 limits assumed: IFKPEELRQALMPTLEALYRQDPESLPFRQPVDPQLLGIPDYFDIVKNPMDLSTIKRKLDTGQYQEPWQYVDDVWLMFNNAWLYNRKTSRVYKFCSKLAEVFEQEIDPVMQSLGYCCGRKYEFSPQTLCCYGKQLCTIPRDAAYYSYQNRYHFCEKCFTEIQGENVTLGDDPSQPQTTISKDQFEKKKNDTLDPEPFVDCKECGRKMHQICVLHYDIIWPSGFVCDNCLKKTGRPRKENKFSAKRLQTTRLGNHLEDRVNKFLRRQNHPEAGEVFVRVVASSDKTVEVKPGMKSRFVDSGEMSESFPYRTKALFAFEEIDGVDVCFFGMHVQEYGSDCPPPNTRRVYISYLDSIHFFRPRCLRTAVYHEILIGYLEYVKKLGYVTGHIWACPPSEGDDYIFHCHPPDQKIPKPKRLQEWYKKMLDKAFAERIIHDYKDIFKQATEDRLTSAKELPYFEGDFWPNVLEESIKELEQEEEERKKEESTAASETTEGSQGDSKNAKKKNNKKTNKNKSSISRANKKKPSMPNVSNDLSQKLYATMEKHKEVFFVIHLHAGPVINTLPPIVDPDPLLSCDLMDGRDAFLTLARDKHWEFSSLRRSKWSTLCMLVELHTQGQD
UniProt Q09472, 1048-1664 limits assumed: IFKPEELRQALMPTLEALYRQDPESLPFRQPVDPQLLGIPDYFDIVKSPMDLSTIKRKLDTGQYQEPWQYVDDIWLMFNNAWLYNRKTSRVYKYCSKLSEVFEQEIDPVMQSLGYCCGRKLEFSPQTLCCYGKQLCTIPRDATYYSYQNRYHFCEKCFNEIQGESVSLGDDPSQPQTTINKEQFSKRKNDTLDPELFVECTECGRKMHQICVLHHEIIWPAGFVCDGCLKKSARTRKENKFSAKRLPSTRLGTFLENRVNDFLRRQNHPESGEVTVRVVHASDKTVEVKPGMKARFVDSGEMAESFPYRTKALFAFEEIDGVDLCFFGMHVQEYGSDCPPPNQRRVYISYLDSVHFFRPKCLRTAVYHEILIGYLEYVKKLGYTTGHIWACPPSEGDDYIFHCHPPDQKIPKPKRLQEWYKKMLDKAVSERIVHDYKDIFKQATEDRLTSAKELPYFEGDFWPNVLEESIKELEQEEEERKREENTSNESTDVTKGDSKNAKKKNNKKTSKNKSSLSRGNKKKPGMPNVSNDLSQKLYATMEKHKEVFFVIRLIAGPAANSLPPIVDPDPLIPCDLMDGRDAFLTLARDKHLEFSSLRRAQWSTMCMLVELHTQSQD

For orientation: pIC50 means the negative decadic logarithm of the IC50, by convention in mol/L.

Molecules are shown by their SMILES. pIC50: −log10 of the molar value. Read-outs that look alike come from different tables or passages of the source.

The subject of assay [1] is H3K18Ac in HB-CLS-2 cells. Briefly: H3K18AC in-cell western (ICW) assay. From the text: The following example describes methods and materials relating to an H3K18AC in-cell western assay. IC50 values (micromolar (μM)) are summarized in Table 1, Table 2, and Table 3 under the column labeled: “CREBBP ICW IC50 (micromolar).”
MATERIALS: HB-CLS-2 cell line, DMEM: Ham's F12 medium (1:1 mixture), penicillin-streptomycin, heat inactivated fetal bovine serum, D-PBS, Odyssey blocking buffer, 800CW goat anti-rabbit IgG (H+L) antibody, Licor Odyssey CLx Infrared Scanner, H3K18Ac rabbit monoclonal antibody. DRAQS fluorescent probe solution (5 mM), and 100% methanol were commercially available. HB-CLS-2 adherent cells were maintained in complete growth medium (DMEM: Ham's F12 supplemented with 10% v/v heat inactivated fetal bovine serum) and cultured at 37° C. under 5% CO2.
METHOD: Cell Treatment, ICW for detection of H3K18Ac and DNA content. HB-CLS-2 cells were seeded in assay medium (DMEM: Ham's F12 supplemented with 10% v/v heat inactivated fetal bovine serum and 1% Penicillin/Streptomycin) at a concentration of 80,000 cells per mL in a Poly-D-Lysine coated 384-well culture plates at 50 μL per well. Plates were incubated at room temperature for 30 minutes and then incubated at 37° C., 5% CO2 for additional 16-24 hours. Compounds and DMSO normalization were then added directly to the plates using a D300 Digital Dispenser and returned to the incubator at 37° C., 5% CO2 for 2 hrs. After the incubation, the contents of the plates were discarded into the appropriate waste stream and blotted on laboratory tissue to remove residual liquid. 90 μL per well of 100% ice cold methanol was added to the plates and incubated at room temperature for 15 minutes. Then methanol was then discarded into the appropriate waste stream and the plates again blotted on laboratory tissue to remove residual liquid. Plates were transferred to a Biotek 405 plate washer and washed 3 times with 100 μL per well of wash buffer (1X PBS containing 0.1% Triton X-100 (v/v)). Next, 50 μL per well of Odyssey blocking buffer with 0.1% Tween 20 (v/v) was added to each plate and incubated for 1 hour at room temperature. Blocking buffer was removed and 20 μL of primary antibody were added (α-H3K18Ac diluted 1:800 in Odyssey buffer with 0.1% Tween 20 (v/v)) and plates were incubated overnight (16 hours) at 4° C. Plates were washed 5 times with 100 μL per well of wash buffer. Next 20 μL per well of secondary antibody was added (1:400 800CW goat anti-rabbit IgG (H+L) antibody, 1:2000 DRAQ5 in Odyssey buffer with 0.1% Tween 20 (v/v)) and incubated for 1 hour at room temperature. The plates were washed 3 times with 100 μL per well wash buffer then 3 times with 100 μL per well of water. Plates were allowed to dry at room temperature then imaged on the Licor Odyssey CLx machine which measured integrated intensity at 700 nm and 800 nm wavelengths. Both 700 and 800 channels were scanned.

A further assay has as its system 647V cells. Briefly: High throughput proliferation (HTP) assay. An excerpt: The following example describes methods and materials relating to a high throughput proliferation (HTP) assay. IC50 values (micromolar) are summarized in Table 1, Table 2, and Table 3 under the column labeled: “CREBBP HTP IC50 (micromolar).”
MATERIALS: 647V cell line, Dulbecco's MEM, penicillin-streptomycin, heat inactivated fetal bovine serum, D-PBS, and CellTiter-Glo were commercially available.
647V adherent cells were maintained in complete growth medium (Dulbecco's MEM supplemented with 15% v/v heat inactivated fetal bovine serum) and cultured at 37° C. under 5% CO2.
METHOD: Measurement of the effect of compound in High Throughput Proliferation (HTP) assays was performed as follows: Exponentially growing 647V cells were plated, in triplicate, in 384-well plates at the appropriate cell density in a final volume of 50 μl. Cells were incubated in the presence of increasing concentrations of compound. Viable cell number was determined at day 7 by addition of 35 μl CellTiter-Glo to each well of the plate, incubated in the dark for 30 minutes, and read on a PerkinElmer EnVision instrument to enumerate the number of cells.

The next assay deals with CREBBP (1084-1701) (Homo sapiens, UniProt Q92793). Briefly: Biochemical assay for CREBBP (1084-1701), SAMDI. From the text: The following example describes materials and methods relating to a biochemical assay for CREBBP (1084-1701). IC50 values (micromolar (μM)) are summarized in Table 1, Table 2, and Table 3 under the column labeled: “CREBBP Biochemistry IC50 (micromolar).”
MATERIALS: Reagents 1M Tris pH 8.0, Tween 20 10%, DTT, bovine serum gelatin (BSG) 2%, Peptide #233 (biotin-H3 11-25, K14R, K23R), Acetyl-CoA, CREBBP (1084-1701), formic acid (100%), and sodium bicarbonate were commercially available.
METHODS: The effect of compounds was measured in the following biochemical assay using CREBBP (1084-1701). Enzyme mix 30 μL per well was added using a Multi-drop to wells of prepared Compound Stock plate. The enzyme was incubated in the Compound Stock plate for 30 minutes at room temperature. Substrate mix, 20 μL per well, was added to Compound Stock plate using a Multi-drop. The plate was covered and incubate 30 minutes at room temperature. The reaction was stopped with addition of 5 μL per well of 5% formic acid using a Multi-drop. The plate was Incubated for 30 minutes at room temperature. The reaction mixture was neutralized with addition of 5 μL per well of 10% sodium bicarbonate using a Multi-drop. The plate was Incubated for 35 minutes at room temperature. The reaction mixture was Transferred 2.5 μL per well to a SAMDI biochip. The plate was Incubated for 60 minutes at room temperature. The samples were washed, dried, and matrix applied to SAMDI biochip. The SAMDI biochip was then read on the mass spectrometer.

In another assay the target is EP300 (P300(1048-1664)) (Homo sapiens, UniProt Q09472). As to the kind of experiment: Biochemical assay for EP300, SAMDI. The following applies: EP300, SAMDI. An excerpt: The following example describes materials and methods relating to a biochemical assay for EP300. IC50 values (micromolar (μM)) are summarized in Table 1, Table 2, and Table 3 under the column labeled: “EP300 Biochemistry IC50 (micromolar).”

The mark [2] stands for this setting: read-out: CREBBP ICW IC50 (micromolar).
[3] abbreviates: read-out: CREBBP HTP IC50 (micromolar).
The mark [4] stands for this setting: read-out: CREBBP Biochemistry IC50 (micromolar), SAMDI.
[5] abbreviates: read-out: EP300 Biochemistry IC50 (micromolar).

With `CCn1ncc(CN(C)C(=O)c2nc(-c3ccc(OCCNC)c(Cl)c3)nc3ccc(CNC)cc23)c1C`, the negative-log IC50 (pIC50) in assay [1] (setting [2]) is 5.14; in the assay on 647V cells (setting [3]), 5.77; at CREBBP (1084-1701) (setting [4]), 5.94; on EP300 (P300(1048-1664)) (setting [5]), 5.48.
Regarding `CCn1ncc(CN(C)C(=O)c2nc(-c3cc(C)cc(NCCO)c3)nc3ccc(Cl)cc23)c1C`, the pIC50 was 6.03 in assay [1] (setting [2]), 6.00 in the assay with 647V cells (setting [3]), 6.70 at CREBBP (1084-1701) (setting [4]) and 6.34 at EP300 (P300(1048-1664)) (setting [5]).
Taken in the same sequence, the figures for `CCn1ncc(CN(C)C(=O)c2nc(-c3ccc(OCCNC(=O)OC(C)(C)C)c(OC)c3)nc3ccc(Cl)cc23)c1C` were 5.29, 5.51, 5.05 and 4.89.
Taken in the same sequence, the figures for `CCn1ncc(CN(C)C(=O)c2cc(-c3cccc(NC(=O)OC(C)(C)C)n3)nc3ccc(Cl)cc23)c1C` were 5.21, 5.29, 5.10 and 5.48.
Take `CCn1ncc(CN(C)C(=O)c2nc(-c3cc(CO)ccc3C)nc3ccc(Cl)cc23)c1C`: the pIC50 in assay [1] (setting [2]) is 5.20; in the assay with 647V cells (setting [3]), 5.12; at CREBBP (1084-1701) (setting [4]), 4.74; at EP300 (P300(1048-1664)) (setting [5]), 5.00.
As for `CCc1cc(CN(C)C(=O)c2cc(-c3ccc(NCCNC)c(C)n3)nc3ccc(Cl)cc23)on1`, the pIC50 in assay [1] (setting [2]) is 6.61; with 647V cells (setting [3]), 6.68; on CREBBP (1084-1701) (setting [4]) it was 7.33; on EP300 (P300(1048-1664)) (setting [5]) it was 6.52.
For the molecule `CCn1ncc(CN(C)C(=O)c2nc(-c3cc4c(N(C)C)n[nH]c4cc3C)nc3ccc(Cl)cc23)c1C`, the pIC50 in assay [1] (setting [2]) is 5.42; in the assay on 647V cells (setting [3]), 5.63; at CREBBP (1084-1701) (setting [4]), 5.29; on EP300 (P300(1048-1664)) (setting [5]), 5.64.
For the molecule `Cc1nc(-c2cc(C(=O)N(C)Cc3onc(C4CC4)c3C)c3cc(Cl)ccc3n2)ccc1NCCN(C)C`, the pIC50 in assay [1] (setting [2]) is 5.81; in the assay with 647V cells (setting [3]), 5.94; at CREBBP (1084-1701) (setting [4]) it was 5.59; on EP300 (P300(1048-1664)) (setting [5]) it was 5.42.
Take `CCn1ncc(CN(C)C(=O)c2nc(-c3cc(Cl)cc(CN(C)C(=O)OC(C)(C)C)c3)nc3ccc(Cl)cc23)c1C`: the pIC50 was 5.70 in assay [1] (read-out: CREBBP ICW IC50, HB-CLS-2 cells); 4.72 with 647V cells (read-out: CREBBP HTP IC50, 647V cells); 5.16 at CREBBP (1084-1701) (read-out: CREBBP Biochemistry IC50, SAMDI); 4.59 on EP300 (P300(1048-1664)) (read-out: EP300 Biochemistry IC50).
Consider `CCc1ncc(CN(C)C(=O)c2nc(-c3cc4c(NC)[nH]nc4cc3C)nc3ccc(COC)cc23)n1C`, for which the negative-log IC50 (pIC50) in assay [1] (setting [2]) is 6.95; in the assay on 647V cells (setting [3]), 7.23; at CREBBP (1084-1701) (setting [4]) it was 7.44; at EP300 (P300(1048-1664)) (setting [5]), 7.87.
